The chains behind the UniProt entries cited, without tags or fusion partners. Residues count along the entry.
UniProt P36544, 23-502 limits assumed: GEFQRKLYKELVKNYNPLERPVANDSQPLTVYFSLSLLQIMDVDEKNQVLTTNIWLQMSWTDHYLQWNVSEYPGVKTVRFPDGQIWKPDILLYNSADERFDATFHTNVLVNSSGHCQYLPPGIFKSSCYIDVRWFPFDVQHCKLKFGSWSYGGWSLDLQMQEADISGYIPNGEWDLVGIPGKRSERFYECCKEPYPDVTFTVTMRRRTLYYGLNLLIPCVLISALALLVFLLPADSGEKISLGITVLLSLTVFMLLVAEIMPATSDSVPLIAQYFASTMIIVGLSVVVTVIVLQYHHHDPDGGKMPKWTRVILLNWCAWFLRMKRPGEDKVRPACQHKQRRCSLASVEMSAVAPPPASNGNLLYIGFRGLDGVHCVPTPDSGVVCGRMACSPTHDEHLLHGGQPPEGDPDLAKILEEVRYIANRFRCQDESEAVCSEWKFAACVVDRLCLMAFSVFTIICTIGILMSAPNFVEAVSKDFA

According to publication PMC3634732, “Chemical Chaperones Exceed the Chaperone Effects of RIC-3 in Promoting Assembly of Functional α7 AChRs” (PLoS ONE, 2013):

Experiments:
[1] = biological target: α7 AChRs on the surface of cells in the α7/RIC-3 line (Homo sapiens, UniProt P36544); assay: Upregulation of surface 125I αBgt binding in the α7/RIC-3 cell line; format: cell-based
[2] = biological target: α7 AChRs on the surface of the α7 cell line (Homo sapiens, UniProt P36544); assay: Upregulation of surface 125I αBgt binding in the α7 cell line; details: 48 hours

Row | Compound | Expression of α7 AChRs on the cell surface ([1]; α7/RIC-3 line, single chemical chaperone) | Upregulation of 125I αBgt binding to the cell surface [2] [fold] | Potency at upregulation less than potency as agonist or antagonist of function ([1]; upregulation EC50 vs functional potency) [fold] | Upregulation of 125I αBgt binding to the cell surface ([1]; α7/RIC-3 line, 48 hours) [fold]
1 | Sodium butyrate | greatly increased |  |  | 
2 | CCN1C[C@]2(COC(=O)c3ccccc3N3C(=O)C[C@H](C)C3=O)CC[C@H](OC)[C@@]34[C@@H]5C[C@H]6[C@H](OC)[C@@H]5[C@](O)(C[C@@H]6OC)[C@@](O)([C@@H](OC)[C@H]23)[C@@H]14 |  | 16 | > 2000 | 2.1
